pIC50: −log10 of the molar value.
How the values were obtained:
K-Ras G12D [1] = target: T1, K-Ras G12D (Homo sapiens, UniProt P01116, G12D); assay: SOS1 catalyzed nucleotide exchange assay (GDP form K-Ras), TR-FRET
K-Ras G12V [2] = target: T2, K-Ras G12V (Homo sapiens, UniProt P01116, G12V); assay: as above
K-Ras G12D [3] = target: T1, K-Ras G12D; assay: GTP-K-Ras and cRAF interaction assay (GppNp-K-Ras), HTRF; conditions: read-out: Biochemical assays, IC50 KRAS G12D GppNp, GppNp-loaded K-Ras G12D, cRAF RBD interaction
K-Ras G12V [4] = target: T2, K-Ras G12V; assay: as above; conditions: read-out: Biochemical assays, IC50 KRAS G12V GppNp, GppNp-loaded K-Ras G12V, cRAF RBD interaction
SW620 cells (K-Ras G12V) [5] = assay: Phospho-ERK1/2(THR202/TYR204) HTRF assay
Protocol: (§1) p-ERK (MAPK pathway) inhibition activity of each of compounds in a variety of K-Ras mutant and K-Ras WT cell lines indicated in Table 12 was evaluated. MKN-1 with K-Ras WT amplification is also a K-Ras dependent cell line.
(§2) Each of cells in culture medium was seeded in 96-well plates at density indicated in Table 16 and then put in a cell incubator to incubate overnight. The next day, the culture medium was removed and the compound diluted in assay medium was added in each well. After 2 hours incubation in a cell incubator, the assay medium in 96-well plates was removed, then 50 μL of 1× blocking reagent-supplemented lysis buffer (Cisbio) was added and the plates were incubated at 25° C. for 45 min with shaking. 10 μL of cell lysates from the 96-well plates were transferred to a 384-well plate (Greiner) containing […] HTRF® pre-mixed antibodies (Cisbio 64AERPEH). The plate was incubated 4 hours at 25° C. and then read HTRF signals on Tecan Spark multimode microplate reader. The data were analyzed using a 4-parameter logistic model to calculate IC50 values.

Chains of the proteins cited; added tags and fusions are not shown. Residues count along the entry.
UniProt P01116, 1-169 isoform 2 G12V limits assumed: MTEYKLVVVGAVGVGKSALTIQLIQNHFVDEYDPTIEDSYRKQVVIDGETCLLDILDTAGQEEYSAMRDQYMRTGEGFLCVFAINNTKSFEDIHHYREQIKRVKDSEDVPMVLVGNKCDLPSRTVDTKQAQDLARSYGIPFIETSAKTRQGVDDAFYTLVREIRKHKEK
UniProt P01116, 1-169 isoform 2 G12D limits assumed: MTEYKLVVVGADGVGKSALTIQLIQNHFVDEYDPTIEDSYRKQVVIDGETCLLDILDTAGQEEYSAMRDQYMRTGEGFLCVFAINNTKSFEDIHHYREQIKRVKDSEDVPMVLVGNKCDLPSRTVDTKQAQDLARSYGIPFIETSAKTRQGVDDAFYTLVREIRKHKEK

AGS cells (K-Ras G12D) [6] = assay: Phospho-ERK1/2(THR202/TYR204) HTRF assay; conditions: read-out: p-ERK, IC50 AGS, 2 hours incubation, tested form: TFA
Protocol: as §1, §2

AGS cells (K-Ras G12D) [7] = assay: 2D cell growth inhibition assay (CellTiter-Glo); conditions: read-out: Cell Growth Inhibition, IC50 AGS, 6 days, absolute IC50, tested form: TFA
Protocol: (§3) The cell growth inhibition activity of each of compounds was tested by performing cell growth inhibition assays on a variety of K-Ras mutant and K-Ras WT cell lines indicated in Table 14.
(§4) Each of cells in culture medium was plated in TC-treated 96-well plates at a density indicated in Table 14 and incubated in a cell incubator overnight. The next day, each of compounds was diluted in culture medium and added to the plates. After 6 days incubation in cell incubator, the cell viability was detected by CellTiter-Glo® Cell Viability Assay kit (Promega). Luminescent signals were read on Tecan Spark multimode microplate reader and analyzed using a 4-parameter logistic model to calculate absolute IC50 values.

SW620 cells (K-Ras G12V) [8] = assay: 2D cell growth inhibition assay (CellTiter-Glo); conditions: read-out: Cell Growth Inhibition, IC50 SW620, 6 days, absolute IC50, tested form: TFA
Protocol: as §3, §4

[9] = test system: AsPC-1 cells (K-Ras G12D); assay: 2D cell growth inhibition assay (CellTiter-Glo); conditions: read-out: Cell Growth Inhibition, IC50 AsPC-1, AsPC-1 (G12D), 6 days, absolute IC50, tested form: TFA
[10] = read-out: Biochemical assays, IC50 KRAS G12V GDP, tested form: TFA
[11] = read-out: p-ERK, IC50 SW620, 2 hours incubation, tested form: TFA

`C#Cc1c(F)ccc2cc(O)cc(-c3nc4c5c(nc(OC[C@@]67CCCN6C[C@H](F)C7)nc5c3F)N3CCOC[C@H]3[C@@H](C)O4)c12` showed a pIC50 (K-Ras G12D [1]; read-out: Biochemical assays, IC50 KRAS G12D GDP) of 7.97, a pIC50 (K-Ras G12V [2]; read-out: Biochemical assays, IC50 KRAS G12V GDP) of 8.22 and a pIC50 (K-Ras G12D [3]) of 6.50. It also gave a pIC50 (K-Ras G12V [4]) of 6.00 and a pIC50 (SW620 cells (K-Ras G12V) [5]; read-out: p-ERK, IC50 SW620, 2 hours incubation) of 7.44.

`C#Cc1c(F)ccc2cc(O)cc(-c3nc4c5c(nc(OC[C@@]67CCCN6C[C@H](F)C7)nc5c3F)N3CCCOC[C@H]3C(C)O4)c12` (single isomer, unassigned) [Compound 13A] showed a pIC50 (K-Ras G12D [1]; read-out: Biochemical assays, IC50 KRAS G12D GDP, tested form: TFA) of 8.74, a pIC50 (K-Ras G12V [2]; [10]) of 8.91 and a pIC50 (K-Ras G12V [4]; tested form: TFA) of 7.60. It also gave a pIC50 (AGS cells (K-Ras G12D) [6]) of 8.16, a pIC50 (SW620 cells (K-Ras G12V) [5]; [11]) of 8.17 and a pIC50 (AGS cells (K-Ras G12D) [7]) of 7.80. The pIC50 (SW620 cells (K-Ras G12V) [8]) was 7.88 and the pIC50 [9] was 6.65.

In the case of `C#Cc1c(F)ccc2cc(O)cc(-c3nc4c5c(nc(OC[C@@]67CCCN6C[C@H](F)C7)nc5c3F)N3CCCOC[C@H]3C(C)O4)c12` (single isomer, unassigned) [Compound 13B], the pIC50 (K-Ras G12V [2]; [10]) was 9.16, the pIC50 (K-Ras G12D [3]; tested form: TFA) was 7.67 and the pIC50 (K-Ras G12V [4]; tested form: TFA) was 7.31. For the same molecule, the pIC50 (AGS cells (K-Ras G12D) [6]) was 8.77, the pIC50 (SW620 cells (K-Ras G12V) [5]; [11]) was 8.92 and the pIC50 (AGS cells (K-Ras G12D) [7]) was 8.40. The pIC50 (SW620 cells (K-Ras G12V) [8]) was 8.72 and the pIC50 [9] was 7.40.

— US20250034166A1, “POLYCYCLIC FUSED RING DERIVATIVES AND USE THEREOF” (Jacobio Pharmaceuticals Co., Ltd., priority 2021, published 2025)
